Measurements taken from patent US8822503B2, “2-pyridone compounds” (Taisho Pharmaceutical Co., Ltd, priority 2009, dated 2014).

The chains behind the UniProt entries cited, without tags or fusion partners. Residues count along the entry.
UniProt P35557, 1-466 isoform 2: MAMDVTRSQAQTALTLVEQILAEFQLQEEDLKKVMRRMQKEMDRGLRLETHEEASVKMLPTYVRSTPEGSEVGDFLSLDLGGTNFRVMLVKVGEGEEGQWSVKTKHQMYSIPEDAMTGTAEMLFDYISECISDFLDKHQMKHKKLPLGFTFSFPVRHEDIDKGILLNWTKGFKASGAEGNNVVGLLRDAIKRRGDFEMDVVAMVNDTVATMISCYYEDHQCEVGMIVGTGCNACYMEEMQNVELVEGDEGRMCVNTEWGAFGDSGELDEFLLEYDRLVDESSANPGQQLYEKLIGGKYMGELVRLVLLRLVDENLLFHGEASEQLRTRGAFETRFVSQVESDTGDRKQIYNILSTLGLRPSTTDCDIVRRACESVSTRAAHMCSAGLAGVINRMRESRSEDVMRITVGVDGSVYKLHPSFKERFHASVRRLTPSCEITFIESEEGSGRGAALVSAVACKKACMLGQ

Molecular target: human liver GK (Homo sapiens, UniProt P35557)
Experiment: GK activation test
Details: read-out: GK EC50; test compound concentration needed to activate 50% of maximum activation ability; 4 mM 14C-labeled glucose, 2 mM ATP, room temperature, 20 minutes
Description: The GK activation test for the test compounds was performed by the method of Irwin A. Rose et al. (J. Biol. Chem. 1964 January; 239:12-7) with partial modifications.
The enzyme source used in this assay, human liver GK, was expressed in E. coli as a fusion protein with GST (glutathione S-transferase) added to the amino terminus and was purified using Glutathione Sepharose 4B (Amersham Biosciences).
The test was carried out using flat-bottom 96-well plates (Sumitomo Bakelite Co., Ltd.). A solution of the test compound in dimethyl sulfoxide (DMSO) and DMSO as a control were added to each well of the plates at a final DMSO concentration of 1%. 25 mM Hepes-KOH (pH=7.1), 25 mM KCl, 2 mM MgCl2, 2 mM ATP, 4 mM ^14C-labeled glucose (Muromachi Yakuhin) and 1 mM DTT (dithiothreitol) were further added at the indicated final concentrations, respectively. Finally, human liver GK was added at 0.24 microgram per well and the reaction was started. The reaction was carried out at room temperature.
After 20 minutes, AG1-X4 resin (BioRad) suspended in 25 mM Hepes-KOH (pH=7.1) was added and the reaction product, labeled glucose 6-phosphate, was allowed to bind thereto. The whole volume was transferred to MultiScreen plates (Millipore) and the resin was washed with water. Thereafter, the labeled glucose 6-phosphate binding to the resin was eluted with a 0.5 M NaCl solution. The labeling activity of the eluted labeled glucose 6-phosphate was measured as an index of GK activity.
The GK activity maximally activated by the test compound was described as maximum activation ability, and the test compound concentration needed to activate 50% of that ability was described as EC50.

Compound | EC50 [nM]
Cc1ccc(/C(=N/OC2CCCC2)c2ccc(S(C)(=O)=O)c(Cl)c2)[nH]c1=O | 3000 to 10000
Cc1ccc(/C(=N\OC2CCCC2)c2ccc(S(C)(=O)=O)c(Cl)c2)[nH]c1=O | 500 to 3000
CSc1ccc(/C(=N/OC2CCCC2)c2ccc(C)c(=O)[nH]2)cc1Cl | 500 to 3000
CSc1ccc(/C(=N\OC2CCCC2)c2ccc(C)c(=O)[nH]2)cc1Cl | 500 to 3000
